High-throughput results deposited in PubChem by National Center for Advancing Translational Sciences (NCATS).
RXFP1 agonist: agonists of human relaxin receptor RXFP1 | AID 2676 | 370,000 compounds, 0.3% hits | HEK293T-RXFP1 cAMP TR-FRET, 30 min; response scale: percent of porcine relaxin response, buffer zero | Potency, µM (highest dose often 57.5 µM), inactives show at the highest dose activation, usual class: activators | Q9HBX9; further: potency means the concentration at half of the fitted maximal effect; on the % scale 0 is the no-effect control and ±100 the full control effect; nearly all actives have a fitted effect of over 60% in size
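Agonist response is measured as cAMP accumulation in an RXFP1-transfected HEK293T line under PDE4 inhibition. Values are scaled between buffer-only and 29 nM porcine relaxin, and EC50s come from standard Hill equation fits.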
Mito fusion act: inhibitors of mitochondrial division or activators of mitochondrial fusion. S. cerevisiae fusion-defective mutant growth rescue, CellTiterGlo 48 h. Potency, µM (series often up to 46.1 µM), for the others: at the top dose growth rescue (activation), actives largely listed as activators. 320,000 compounds, 0.23% hits. AID 485298; further: potency means the concentration at half of the fitted maximal effect; % of control where 0% means no effect; nearly all actives have a fitted effect of over 45% in size
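Yeast fusion mutant, YPEG (non-fermentable carbon), compound, 48 h at 37C non-permissive; CellTiterGlo added, 10 min RT, luminescence read. Rescued growth = division inhibition.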
S-ASM inh: blocks human secretory acid sphingomyelinase; placental ASM, HMU-PC fluorogenic substrate, 60 min; Potency, µM (doses to about 57.5 µM), for inactives: at the highest dose activity change, negative = inhibition, most hits filed as inhibitors; P17405; 340,000 compounds, 0.006% hits; further: potency means the concentration at half of the fitted maximal effect
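Human placenta-derived ASM preincubated with compound 10 min at room temperature, then reacted with 9 uM (final) fluorogenic HMU-PC substrate for 60 min at 37 C. Stop solution raises pH to 10; fluorescence read at Ex 386/Em 447 nm.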
ERG Ets-DNA blk: inhibitors of human ERG Ets domain-DNA interaction; P11308; fluorescence polarization, His-ERG Ets domain / labelled DNA; Potency, µM (highest dose often 76.9 µM), without a hit: at the highest dose FP activity, negative = inhibition, most hits filed as inhibitors; 370,000 compounds, 0.028% hits; AID 624246; active means well fitted inhibition curve with a large enough effect in the polarisation, with a control signal flat; inconclusive means small, poorly fitted or top-dose-only effect, or effect the other way, or a change in a side signal; inactive means no such curve, though single readings can be large or run the other way; the % refers to the polarisation;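 further: polarization taken with two DNA probes labelled with fluorescein and Texas red; potency means the concentration at half of the fitted maximal effect; % of control where 0% means no effect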
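His-tagged ERG Ets domain (1 uM in the protein solution; 300mM KCl, 50mM Tris-HCl, 1mM EDTA, 1mM DTT, pH 7.5) received compound, then a probe mix of 5 nM fluorescein-DNA and 100nM Texas-615-DNA. Fluorescence polarization was read for both dyes.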
RXFP1 antag: blocks the human relaxin receptor RXFP1 | HEK293-RXFP1, relaxin-stimulated cAMP HTRF, 30 min; hits give low values | activity change, negative = inhibition, % at 57.5 µM | Q9HBX9 | 350,000 compounds, 0.59% hits;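 active means activity change of -60% or lower, but not beyond a set lower limit; inconclusive means change between -60% and -40%, or beyond the set limit; inactive means change above -40%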; further: on the % scale 0 is the no-effect control and ±100 the full control effect
miR-21 reporter: miR-21 reporter, rising signal. 340,000 tested, under 10 active. Potency, µM (highest dose often 38.3 µM), for the others: at the highest dose reporter change, positive = more light. HeLa miR-21 FLuc reporter, luciferase, 48 h. AID 2288; active = well fitted rising curve with a large enough effect; inconclusive = small, poorly fitted or top-dose-only effect; inactive = no such curve, though single readings can be large or run the other way;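 further: % of control where 0% means no effect; miR-21 action dims this reporter so a rising signal means less miR-21 action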
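HeLa cells endogenously expressing miR-21, stably carrying CMV-driven firefly luciferase with a downstream miR-21 binding site, 2000 cells/well. Titrations up to approximately 40 uM, 48 hours; luciferase luminescence read.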
* hit, by the source's call. Compounds with a hit are over-represented: about 0.72% of the library has one in this group of screens. Unless noted, the call rests on the fitted dose curve; in most records, active means well fitted curve in the direction sought with a large enough effect; inconclusive means small, poorly fitted or top-dose-only effect, or another doubt; inactive means no such curve, though single readings can be large; an effect the other way counts as inactive or inconclusive.

For Cc1cccc(N2CCN(C(=O)c3ccc(CS(=O)Cc4ccc(Cl)cc4)o3)CC2)c1C (stereo unspecified) the results were RXFP1 agonist 0%, Mito fusion act -15%, S-ASM inh -8%, ERG Ets-DNA blk 0%, RXFP1 antag -78* and miR-21 reporter 14%.
For Cc1ccccc1S(=O)Cc1ccc(C(=O)N2CCN(c3cccc(C)c3C)CC2)o1 (stereo unspecified) the results were RXFP1 agonist 6%, ERG Ets-DNA blk 7%, RXFP1 antag -98* and miR-21 reporter inconclusive.
`CC(=O)N1CCc2cc(Br)cc(S(=O)(=O)CCC(=O)Nc3ccc(C)cc3Cl)c21` gave RXFP1 agonist 1%, ERG Ets-DNA blk -9% and miR-21 reporter 2%.
`Cn1c(=O)[nH]c2nnc(-c3ccc(Cl)c(Cl)c3)nc2c1=O` gave RXFP1 agonist inconclusive, Mito fusion act 2.5µM*, S-ASM inh -1%, ERG Ets-DNA blk 8%, RXFP1 antag 17 and miR-21 reporter -38%.
CN1CCC(NCCC(c2ccc(F)cc2)c2ccc(Cl)cc2)CC1 (stereo unspecified) was read as RXFP1 agonist 0%, Mito fusion act -32%, S-ASM inh 1%, ERG Ets-DNA blk 9%, RXFP1 antag -86* and miR-21 reporter inconclusive.
`C=C1CC(Cn2cc(Br)c(=O)[nH]c2=O)(c2ccc(-c3ccccc3)cc2)OC1=O` (stereo unspecified) gave S-ASM inh inconclusive and RXFP1 antag -90*.
Screening Cc1c2cnn(CC(=O)N3CCN(c4ccccc4)CC3)c(=O)c2c(C)n1Cc1ccc(F)cc1 returned RXFP1 agonist -1%, ERG Ets-DNA blk -3%, RXFP1 antag -12 and miR-21 reporter 1%.
Screening CSc1ccc(C2=CC(=O)C[C@H](c3ccc4c(c3)OCO4)C2)cc1 returned RXFP1 agonist 1%, Mito fusion act 5%, S-ASM inh 91% and ERG Ets-DNA blk -5%.
Screening Cc1ccc(C2=CC(=O)C[C@H](c3ccc4c(c3)OCO4)C2)cc1 returned RXFP1 agonist 2%, Mito fusion act 4µM*, S-ASM inh -8% and ERG Ets-DNA blk -9%.
For Cc1ccc(Cl)cc1NC(=O)CCc1c(C)nc2c3cccnc3nn2c1C the results were RXFP1 agonist 7%, ERG Ets-DNA blk -2%, RXFP1 antag 7 and miR-21 reporter -2%.

3 entries already listed, arranged by formula weight, largest number first.
Screening Cc1c2cnn(CC(=O)N3CCN(c4ccccc4)CC3)c(=O)c2c(C)n1Cc1ccc(F)cc1 returned RXFP1 agonist -1%, ERG Ets-DNA blk -3%, RXFP1 antag -12 and miR-21 reporter 1%.
For Cc1cccc(N2CCN(C(=O)c3ccc(CS(=O)Cc4ccc(Cl)cc4)o3)CC2)c1C (stereo unspecified) the results were RXFP1 agonist 0%, Mito fusion act -15%, S-ASM inh -8%, ERG Ets-DNA blk 0%, RXFP1 antag -78* and miR-21 reporter 14%.
For Cc1ccc(Cl)cc1NC(=O)CCc1c(C)nc2c3cccnc3nn2c1C the results were RXFP1 agonist 7%, ERG Ets-DNA blk -2%, RXFP1 antag 7 and miR-21 reporter -2%.

Next section:
For CCC(=O)OCCNc1cc(Sc2nccn2C)c2nonc2c1[N+](=O)[O-] the results were RXFP1 agonist 6%, Mito fusion act 16%, S-ASM inh -4%, ERG Ets-DNA blk -2%, RXFP1 antag -90* and miR-21 reporter 13%.
Screening O=C(/C=C/c1ccoc1)c1ccccc1O returned RXFP1 agonist 1%, Mito fusion act 1%, S-ASM inh 0%, ERG Ets-DNA blk 15%, RXFP1 antag -3 and miR-21 reporter -13%.
For COc1ccc2ccccc2c1C(=O)/C=C\c1ccoc1 the results were RXFP1 agonist 4%, Mito fusion act 10µM*, S-ASM inh -4%, ERG Ets-DNA blk 0%, RXFP1 antag 7 and miR-21 reporter -22%.
`Cc1ccc(S(=O)(=O)c2cc3c(=O)n4cccc(C)c4nc3n(C3CCCCC3)c2=N)cc1` gave RXFP1 agonist -1%, Mito fusion act 21%, S-ASM inh 13%, ERG Ets-DNA blk -4%, RXFP1 antag -5 and miR-21 reporter -1%.
For Cc1ccc(S(=O)(=O)c2cc3c(=O)n4ccccc4nc3n(C3CCCC3)c2=N)cc1 the results were RXFP1 agonist -1%, Mito fusion act 9%, S-ASM inh -3%, ERG Ets-DNA blk -8%, RXFP1 antag -84* and miR-21 reporter -10%.
